# Binding of CDR-mutated scFvs to a peptide of the spike HR2 region

Values reported by Engelhart et al. 2022, doi:10.1038/s41597-022-01779-4 (FLAb copy).

Target: peptide PDVDLGDISGINAS, taken from heptad repeat 2 (HR2) of SARS-CoV-2 spike.

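AAYL52 was designed without a model: most single CDR substitutions and a random sample of double and triple ones. The scFvs were displayed on barcoded MATa yeast, the peptide on MATalpha yeast. Binding brings cells together so that they mate, and sequencing counts the barcode pairs among the diploids. Read counts were normalised to the haploid input and turned into Kd by a linear fit to BCL2-family pairs of known affinity, for each replicate. There are three technical replicates.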

Ab-95 is the parent antibody, in scFv form: VH, then the linker GGGGSGGGGSGGGGS, then VL. The heavy chain is unchanged in all variants.
VH: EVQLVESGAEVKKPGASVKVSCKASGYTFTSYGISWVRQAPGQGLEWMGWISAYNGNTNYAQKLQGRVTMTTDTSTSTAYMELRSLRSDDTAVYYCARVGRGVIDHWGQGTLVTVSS
VL: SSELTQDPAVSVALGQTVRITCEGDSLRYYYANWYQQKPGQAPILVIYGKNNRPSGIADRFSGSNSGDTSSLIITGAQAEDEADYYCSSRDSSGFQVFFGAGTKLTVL

The parent's light chain CDRs are EGDSLRYYYAN, GKNNRPS, SSRDSSGFQVF; each variant's own CDRs replace them letter for letter.
All variants listed here change N52 of the VL, counted from its first residue.
Each Kd is an estimate from the mating assay, the geometric mean of the replicates in which the pair was seen; lower is stronger.
An entry "not detected" has no value in the source: the pair was not observed among the diploids in any replicate. This suggests poor binding but is not conclusive.
In this assay the parent's reference entry averaged 200 nM; its copy inside this library read 180 nM.
Empty control strains, which show no peptide, gave a signal in 28% of pairings with library AAYL52; the median was 8.2 µM and 95% of these signals were weaker than 800 nM. No background was subtracted.

CDR-L1,CDR-L2,CDR-L3,Kd (apparent),seen in
EGDSLRYYYMN,GKNTRPS,SSRDSSGFQVF,31 µM,2/3
EGDSESYYYAN,GKNLRPS,SSRDSSGFQVF,91 µM,1/3
EGMSQRYYYAN,GKNQRPS,SSRDSSGFQVF,310 nM,2/3
EGDSLRNYYAN,GKNYRPS,SSRDSSCFQVF,4.2 µM,1/3
EGDSLRYYYAN,GKNLRPS,WSRDSSGSQVF,4.2 µM,2/3
EGDSLRYYYPN,GKNCRYS,SSRDSSGFQVF,29 µM,1/3
EGNSLRYYYAT,GKNFRPS,SSRDSSGFQVF,37 µM,1/3
EGDSLRYYYAN,GWRIRPS,SSRDSSGFQVF,not detected,0/3
EGDSLRYYYAN,GKNARPS,TSRDSPGFQVF,6.0 µM,2/3
EGDALRYYYAG,GKNMRPS,SSRDSSGFQVF,7.3 µM,1/3
EGDSLRYYYAN,GANPRPS,SSRDSSGFQVT,150 µM,1/3
EGDSLRYYYAN,GKNMRPS,SSRISSSFQVF,160 nM,3/3
EGDSLRYYYAN,GKNYHPS,WSRDSSGFQVF,1.1 µM,3/3
EHDSLRYYYAN,GKNVHPS,SSRDSSGFQVF,4.5 µM,3/3
EGDSLRYYYAN,GKNFRPS,RSRDSSGMQVF,24 µM,1/3
EGDSLRYYYAN,GKNFRPS,YSTDSSGFQVF,400 nM,3/3
EGDSLAYYYAN,GKNRRPS,SSRDSSGFNVF,3.2 µM,3/3
EGDSLRYYLAN,GKNRRPS,SSRDSSGFFVF,5.8 µM,3/3
EKDSLRYYYAN,GKNFRPS,SSRDSSGFQVF,5.0 µM,3/3
EGDSLRYYYAN,GKNHFPS,ISRDSSGFQVF,2.9 µM,1/3
EGVSGRYYYAN,GKNVRPS,SSRDSSGFQVF,360 nM,3/3
EGDSLEYYYAN,GKNGRPS,SSRDSSGDQVF,not detected,0/3
EGDSCRYYYAN,GKNERMS,SSRDSSGFQVF,5.0 µM,3/3
EGDSLRYYYAN,GKNCRFS,SSRDSSGIQVF,38 µM,1/3
EGDSLRNYYAN,FKNRRPS,SSRDSSGFQVF,32 µM,2/3
CGDSLREYYAN,GKNGRPS,SSRDSSGFQVF,2.3 µM,3/3
EGDSLRYYYAN,GKNFRPS,SSRDQSGFVVF,250 nM,3/3
EGDSLMYYYAN,GKNDRPS,SSRDSSGFQEF,130 nM,3/3
EGDSLRYYYAN,GMNCRPS,ISRDSSGFQVF,2.3 µM,1/3
VGDSLRYYYAN,GKNRRGS,SSRDSSGFQVF,530 nM,3/3
EGDSLRYYYAN,GKNCRPM,SMRDSSGFQVF,280 nM,1/3
EGDSLRYYYAN,GKNARPS,SSRDSSGFQVF,47 nM,3/3
EGDSNRYYYAN,GKNWRPS,SSRDSSGFQCF,not detected,0/3
EGDSLRYYYAP,GKNDRPS,SSRDSSGFQVE,not detected,0/3
EGDSLRPYYAN,GKNMRPS,SWRDSSGFQVF,420 nM,3/3
EGDSLRYYYCN,GKNHRPS,SSRDSSGFQVF,1.8 µM,3/3
CGPSLRYYYAN,GKNMRPS,SSRDSSGFQVF,190 nM,3/3
EGHSLRYYYAN,GKNFRPS,SSRDSSGFQVF,1.9 µM,3/3
EGDSLRYYYAN,GKNWRAS,SSRDSSGFQVC,2.7 µM,3/3
EGDSLCYYTAN,GKNHRPS,SSRDSSGFQVF,6.5 µM,3/3
EGDSLRYYYAN,GKNHRPS,SPRDSSGFQVF,35 µM,1/3
EGDSLRYYYAN,GKNHRPS,SSRDGHGFQVF,710 nM,3/3
ERDSLRYYYAN,GKNIMPS,SSRDSSGFQVF,160 µM,2/3
EGDSLRYYYAN,GKNDRDS,ESRDSSGFQVF,1.1 µM,2/3
EGDSLRYCYAH,GKNTRPS,SSRDSSGFQVF,1.9 µM,3/3
EGDSLRYMYAN,QKNLRPS,SSRDSSGFQVF,120 nM,3/3
EGDSLRYYYAW,GKNSRPS,SSRDSSGFQVF,4.1 µM,2/3
EGDSLWYYYAN,GKNSRPS,SSRDSSGFDVF,1.0 µM,3/3
EGDSLRYYYAN,GKNPRPS,SSRESIGFQVF,not detected,0/3
EGDSLRYYYAN,GQNMRPS,SSRDSSGFQVF,64 nM,3/3
EHDSLRYYYAN,GKNLRPS,SSQDSSGFQVF,2.3 µM,3/3
EGDSKRYYYAN,GKNQRPS,SSRDWSGFQVF,36 µM,3/3
EGDSLMYYYAN,GKNERPS,SSRDSSGFQVF,110 nM,3/3
EGDSLRYYYAN,GKNKRPS,SSQDFSGFQVF,13 µM,2/3
EGDSLRYYSAN,GKNTRPS,SSRDSSGFQDF,1.3 µM,3/3
CGDSLRYYYAN,GKNPRPK,SSRDSSGFQVF,24 µM,1/3
EGDSLRKYYMN,GKNWRPS,SSRDSSGFQVF,2.7 µM,2/3
EGDSLRYYYAN,GKNVRPE,SSRRSSGFQVF,4.1 µM,1/3
EGDSIRYYYAN,GKNVRPS,SSRDSSGFQVL,240 nM,3/3
EGDSLRYYYAN,GSNGRPS,SSRDSSGEQVF,500 nM,3/3
EGDSLRYYYAN,GKNKRPY,SKRDSSGFQVF,16 µM,1/3
EGDSLRKYYAN,GKNYRDS,SSRDSSGFQVF,1.2 µM,2/3
EGDSLRYYYAN,GKNSRPS,SSRDSSAEQVF,310 nM,3/3
QGDSLRYYYAN,GKNKRPS,SSRDSSGFQVY,not detected,0/3
EGDSLRYYYAN,GKNWRVS,SSRDSSGFQVF,2.1 µM,1/3
EGDSLRYYYAN,GLNGHPS,SSRDSSGFQVF,3.3 µM,3/3
EGDSLRYYYAN,GKFQRPS,SSRDSSGFQVF,2.4 µM,3/3
EGDSLRYYYAN,GKNTRPS,SSRDSSDFQVS,270 nM,3/3
EGDSLRYYYAN,GKNERPS,SSHDSSVFQVF,47 nM,3/3
EGDSLRYYYAN,GKNYSPS,SSRDSSGFQVF,14 µM,1/3
EGDSLRYYYAN,GKNKRPD,SSRDSSGCQVF,530 nM,3/3
EGDSLRDYYAN,GKTHRPS,SSRDSSGFQVF,1.0 µM,3/3
EGDSLRIYYAN,GKNYRPS,SSRDSSGFQVF,39 µM,2/3
EGDSLRYYYAN,GKNTNPS,SMRDSSGFQVF,37 µM,3/3
EGDSDRYYYAN,GKNWRPS,SSDDSSGFQVF,not detected,0/3
EGDSLRDYYAN,GKNERPW,SSRDSSGFQVF,40 nM,3/3
EGDSLRYYYAN,GKNWRPS,SSYDASGFQVF,not detected,0/3
EGDSLRYYYAN,GKNACPS,SSRDSSGFQEF,41 µM,1/3

Top 6 of the variants detected in all replicates, tightest first:

| CDR-L1 | CDR-L2 | CDR-L3 | Kd (apparent) | seen in |
|---|---|---|---|---|
| EGDSLRDYYAN | GKNERPW | SSRDSSGFQVF | 40 nM | 3/3 |
| EGDSLRYYYAN | GKNARPS | SSRDSSGFQVF | 47 nM | 3/3 |
| EGDSLRYYYAN | GKNERPS | SSHDSSVFQVF | 47 nM | 3/3 |
| EGDSLRYYYAN | GQNMRPS | SSRDSSGFQVF | 64 nM | 3/3 |
| EGDSLMYYYAN | GKNERPS | SSRDSSGFQVF | 110 nM | 3/3 |
| EGDSLRYMYAN | QKNLRPS | SSRDSSGFQVF | 120 nM | 3/3 |